Results taken from ChEMBL document CHEMBL3621100, “Discovery of Novel Class I Histone Deacetylase Inhibitors with Promising in Vitro and in Vivo Antitumor Activities” (J Med Chem, 2015).

Chains of the proteins cited; added tags and fusions are not shown. Lines headed by an entry give the natural chain unless they say otherwise; changes in a name come on top.
UniProt O15379: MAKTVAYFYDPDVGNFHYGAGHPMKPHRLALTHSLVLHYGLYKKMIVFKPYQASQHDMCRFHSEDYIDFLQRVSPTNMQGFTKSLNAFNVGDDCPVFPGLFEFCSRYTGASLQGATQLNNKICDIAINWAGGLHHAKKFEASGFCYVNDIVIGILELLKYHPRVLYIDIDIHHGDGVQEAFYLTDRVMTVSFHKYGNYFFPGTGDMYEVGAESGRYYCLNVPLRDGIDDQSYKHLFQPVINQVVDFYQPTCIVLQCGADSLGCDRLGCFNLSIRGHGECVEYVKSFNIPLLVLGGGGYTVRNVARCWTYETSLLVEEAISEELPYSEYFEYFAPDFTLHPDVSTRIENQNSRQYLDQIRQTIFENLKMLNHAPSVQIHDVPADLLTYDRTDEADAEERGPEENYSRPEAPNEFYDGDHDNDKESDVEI

Target: Histone deacetylase 3 (Homo sapiens, UniProt O15379)
Experiment: Inhibition of recombinant human HDAC3 after 60 mins by fluorescence assay

C/C=C1\NC(=O)C(CS)NC(=O)[C@@H](C(C)C)NC(=O)C[C@@H](/C=C/CCS)OC(=O)[C@H](C(C)C)NC1=O (single isomer, unassigned) [FR-135313]
IC50: 4.8 nM
